Compounds with a hit are over-represented: about 1.7% of the library has one in this group of screens.
CAL PDZ FP-1 – untagged CAL PDZ binding inhibitors, primary screen, biochemical, fluorescence polarization, HTS. 300,000 tested, 0.92% active. purified CAL PDZ, TMR-peptide fluorescence polarization, 1 h. Golgi-associated PDZ and coiled-coil motif-containing protein (Homo sapiens), Q9HD26. inhibition, % at 24.9 µM;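 active = mean inhibition of at least 30% with at least half of replicates also reaching 30%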;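 also: 0% = DMSO neutral control and 100% = excess unlabeled competitor peptide PRC23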
dFosB activator – activators of delta FosB homodimer, primary screen, biochemical, fluorescence polarization, TAMRA-CDK5 oligo, single point. 340,000 tested, 0.99% active. Protein FosB (Mus musculus), P13346. purified delta FosB; percent of positive-control signal above neutral wells. AID 493131, 2011. activation, % at 25 µM;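 active = mean activation above about 17%, with every replicate also reaching it, limit read from the data, passing the limit was not always enough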
CAL PDZ FP-2 – CAL PDZ peptide-binding inhibitors, primary screen, biochemical, fluorescence polarization, Cer-tagged CAL PDZ, HTS | inhibition, % at 20 µM | Golgi-associated PDZ and coiled-coil motif-containing protein (Homo sapiens), Q9HD26 | 330,000 tested, 0.02% active | purified CAL PDZ, TMR-peptide fluorescence polarization, 1 h | AID 504414, 2011;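 active = highest replicate inhibition of at least 40%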;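 also: plate controls were DMSO neutral control wells for no effect and unlabeled competitor peptide control wells for full effect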
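System: tagged CAL PDZ domain. Schedule: 1 h room-temperature incubation prior to read. Signal: fluorescence polarization (mP). Measure: percent inhibition from loss of millipolarization.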
CDK5 p35 inh – inhibitors of human CDK5/p35 kinase, primary screen, biochemical, single concentration. Recombinant CDK5/p35, ADP-Glo luminescence, 60 min. 330,000 tested, 0.01% active. inhibition, % at 10 µM. Cyclin-dependent kinase 5 (Homo sapiens) + Cyclin-dependent kinase 5 activator 1 (Homo …;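 active = highest replicate inhibition of at least 50% and at least 75% of replicates reaching 50%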;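 also: plate controls were DMSO neutral control for no effect and GW8510 at 10 µM for full effect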
DYRK1A inh – rat Dyrk1A kinase inhibitors, primary screen, biochemical, single point, plate reader | Dual specificity tyrosine-phosphorylation-regulated kinase 1A (Rattus norvegicus), Q63470 | ADP-Glo luminescence, NFATc1 peptide | inhibition, % at 12.5 µM | 310,000 tested, 0.43% active | AID 504441, 2011; in the data active = inhibition above about 50%;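 also: plate controls were vehicle with enzyme for no effect and no enzyme for full effect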
Yeast UUG start – alters start codon recognition fidelity in yeast | S. cerevisiae UUG-firefly luciferase reporter, luminescence/redox ratio | activity score, % at 18.7 µM | 350,000 compounds, 0.13% hits | AID 602363;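 active = replicate mean at a twofold rise or more, about +100% in these data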;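 note: firefly luciferase made from a UUG start codon reports start codon fidelity; reporter light over untreated wells divided by growth signal over untreated wells; some hits fall short of that in this replicate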
* marks the source's active call; other numbers are inactive results; / = no result given.

(1) Cc1cc(=O)c(C(=O)O)nn1-c1cccc(C(F)(F)F)c1
(2) Cc1cc(=O)c(C(=O)O)nn1-c1ccccc1C(F)(F)F
(3) Cc1ccc(S(=O)(=O)N(C)C[C@H]2Oc3ccc(NS(=O)(=O)c4ccc(F)cc4)cc3CC(=O)N([C@H](C)CO)C[C@H]2C)cc1
(4) Cc1ccccc1Nc1nc(N)nc(CN2C(=O)NC3(CCCCC3C)C2=O)n1 (configuration not stated)
(5) CC1CCCCN1CCNC(=O)c1cc2c(=O)n(C)c3ccccc3c2n1C (configuration not stated)
(6) N#Cc1ccc(CSc2nc(N)cc(N)n2)cc1
(7) COc1ccc(CN(C)C[C@H]2OCCCC[C@H](C)Oc3ccc(NC(=O)CCC(F)(F)F)cc3C(=O)N([C@H](C)CO)C[C@@H]2C)cc1
(8) C[C@H](CO)N1C[C@H](C)[C@@H](CN(C)Cc2ccc(Oc3ccccc3)cc2)Oc2c(NC(=O)Nc3ccccc3)cccc2C1=O
Screen / compound no.	1	2	3	4	5	6	7	8
CAL PDZ FP-1	73*	/	/	50*	/	72*	/	/
dFosB activator	-6	-2	/	-4	-24	8	/	/
CAL PDZ FP-2	0	0	/	-1	-2	-3	/	/
CDK5 p35 inh	0	4	/	-2	1	0	/	/
DYRK1A inh	-5	-6	/	-1	50*	4	/	/
Yeast UUG start	-8	6	6	-11	-6	-11	-6	-2

Part of the list above, field by field:
2	Cc1cc(=O)c(C(=O)O)nn1-c1ccccc1C(F)(F)F
  CAL PDZ FP-1: /; dFosB activator: -2; CAL PDZ FP-2: 0; CDK5 p35 inh: 4; DYRK1A inh: -6; Yeast UUG start: 6
6	N#Cc1ccc(CSc2nc(N)cc(N)n2)cc1
  CAL PDZ FP-1: 72*; dFosB activator: 8; CAL PDZ FP-2: -3; CDK5 p35 inh: 0; DYRK1A inh: 4; Yeast UUG start: -11
1	Cc1cc(=O)c(C(=O)O)nn1-c1cccc(C(F)(F)F)c1
  CAL PDZ FP-1: 73*; dFosB activator: -6; CAL PDZ FP-2: 0; CDK5 p35 inh: 0; DYRK1A inh: -5; Yeast UUG start: -8
5	CC1CCCCN1CCNC(=O)c1cc2c(=O)n(C)c3ccccc3c2n1C (configuration not stated)
  CAL PDZ FP-1: /; dFosB activator: -24; CAL PDZ FP-2: -2; CDK5 p35 inh: 1; DYRK1A inh: 50*; Yeast UUG start: -6

More structures:
(9) N#Cc1c(N)c(C#N)c(-c2ccc3c(c2)OCO3)c2c1CCCC2
(10) N#Cc1c(N)c(C#N)c(-c2ccc(O)cc2)c2c1CCCC2
(11) COc1ccc(C(=O)N2C[C@@H]3[C@H](c4ccccc42)[C@H](CO)N3Cc2ccccc2)cc1
(12) CCn1cnc2sc(C(=O)Oc3cccc(C)c3)c(C)c2c1=O
(13) Cc1ccc(S(=O)(=O)Nc2ccc3c(c2)C(=O)N([C@@H](C)CO)C[C@H](C)[C@@H](CN(C)CC2CCCCC2)OCCCC[C@H](C)O3)cc1
(14) Cc1cccc(C(=O)NCC(=O)OCC(=O)c2cc(C)n(CC3CCCO3)c2C)c1 (configuration not stated)
(15) Cc1cc(C(=O)COC(=O)CNC(=O)c2ccccc2)c(C)n1CC1CCCO1 (configuration not stated)
(16) O=C(NNS(=O)(=O)c1ccccc1)c1ccccc1-n1cccc1
Screen / compound no.	9	10	11	12	13	14	15	16
CAL PDZ FP-1	-1	75*	/	42*	/	89*	4	41*
dFosB activator	-3	-17	/	-12	/	-11	-3	-4
CAL PDZ FP-2	/	-2	/	0	/	0	0	-1
CDK5 p35 inh	-10	1	/	-1	/	-1	-1	2
DYRK1A inh	3	31	/	-2	/	0	0	0
Yeast UUG start	-10	11	9	-18	34	/	/	-8

(17) O=C(NNS(=O)(=O)c1ccc(Br)cc1)c1ccccc1-n1cccc1
(18) CC(NC(=O)c1cc(-c2ccncc2)nc2ccc(Br)cc12)C1CCCO1 (configuration not stated)
(19) O=C(Nc1ccc(Cl)cc1)c1ccc(OCC2CCCO2)cc1 (configuration not stated)
(20) O=C(Nc1ccc(C(F)(F)F)cc1)c1ccc(NC(=O)C2CCCO2)cc1 (configuration not stated)
(21) O=C(NCc1ccc(Cl)cc1)c1ccc(OCC2CCCO2)cc1 (configuration not stated)
(22) Cc1ccc(NC(=O)c2cc(-c3ccc(C)c(C)c3O)n[nH]2)cc1C
(23) Cc1cccc(NC(=O)c2cc(-c3ccc(C)c(C)c3O)n[nH]2)c1
(24) COc1ccc(NC(=O)c2cc(-c3ccc(C)c(C)c3O)n[nH]2)cc1Cl
Screen / compound no.	17	18	19	20	21	22	23	24
CAL PDZ FP-1	-21	45*	34*	-5	3	1	7	2
dFosB activator	1	-16	2	17*	2	23*	33*	13
CAL PDZ FP-2	-3	-2	0	-3	-2	0	0	/
CDK5 p35 inh	2	1	2	-2	0	0	0	1
DYRK1A inh	-4	2	1	-7	-8	-3	3	-1
Yeast UUG start	7	2	/	-6	-5	-14	-16	-15

(25) COCC(=O)N(C)C[C@@H]1Oc2ncc(Br)cc2C(=O)N([C@H](C)CO)C[C@@H]1C
(26) COC(=O)c1ccc(OCc2nn[nH]n2)cc1
(27) COc1ccc(OCc2nn[nH]n2)cc1
(28) Cn1c(SCC(=O)NNC(=O)c2ccc(Br)cc2)nnc1-c1cccnc1
(29) COc1ccc(C(=O)NNC(=O)CSc2nnc(-c3cccnc3)n2C)cc1
(30) O=C(Nc1nccs1)[C@@H]1[C@@H](CO)[C@@H]2Cn3c(cccc3=O)[C@H]1N2C(=O)C1CC1
(31) CCN(CC)Cc1cc(Nc2c3ccccc3nc3c4ccccc4n(C)c23)cc(CN(CC)CC)c1O
(32) COc1ccc(S(=O)(=O)N[C@@H]2CC[C@@H](CC(=O)NCCc3ccncc3)O[C@H]2CO)cc1
Screen / compound no.	25	26	27	28	29	30	31	32
CAL PDZ FP-1	/	61*	-3	63*	/	/	0	/
dFosB activator	/	4	3	-2	-4	/	66*	/
CAL PDZ FP-2	/	-2	2	0	-1	/	4	/
CDK5 p35 inh	/	0	0	-1	2	/	1	/
DYRK1A inh	/	5	/	1	0	/	2	/
Yeast UUG start	-9	-23	-5	/	/	1	/	7

(33) Cc1c(NS(=O)(=O)c2ccc(S(=O)(=O)c3ccccc3)s2)c(=O)n(-c2ccccc2)n1C
(34) COc1ccc(Cc2nc3ccc(C(=O)N(C)C(C)c4ccon4)cc3o2)cc1 (configuration not stated)
(35) Cc1ccc(N/N=C(\C#N)C(=N)N2CCOCC2)cc1
(36) COc1ccc(N/N=C(\C#N)C(=N)N2CCCCC2)cc1
(37) Cc1ccc(N/N=C(\C#N)C(=N)N2CCCCCC2)cc1
(38) CC(C)c1ccc(NC(=O)c2n[nH]c(=O)c3ccccc23)cc1
(39) O=C(NNC(=O)c1n[nH]c(=O)c2ccccc12)c1ccc(Br)cc1
(40) C[C@@H]1CN([C@H](C)CO)C(=O)Cc2cc(NC(=O)CCC(F)(F)F)ccc2O[C@@H]1CN(C)S(=O)(=O)c1ccc(F)cc1
(41) O=C(Nc1cccc(C(F)(F)F)c1)c1cc2ncc(Br)cn2n1
(42) O=C(Nc1ccc2c(c1)OCO2)c1cc2ncc(Br)cn2n1
(43) Cc1cc(C)c2c(CN3CCC(C)CC3)cc(=O)oc2c1
Screen / compound no.	33	34	35	36	37	38	39	40	41	42	43
CAL PDZ FP-1	50*	34*	-2	49*	30*	35*	109*	/	/	-2	80*
dFosB activator	-2	-9	-6	1	-2	8	1	/	8	28*	-1
CAL PDZ FP-2	0	1	-2	-1	1	-1	-1	/	-3	-1	-1
CDK5 p35 inh	-1	0	1	1	-2	0	-4	/	2	-3	0
DYRK1A inh	-1	8	2	27	0	0	-2	/	-3	0	3
Yeast UUG start	/	21	/	/	/	/	-14	6	-14	-20	-11
